Consider one molecule from US4689321A, “Oxo propenyl nucleosides and nucleoside related analogs” (The Research Foundation of State University of New York, priority 1984, dated 1987).

This data set has as its system murine leukemia. Put plainly: murine leukemia model, ascites cells implanted i.p. in mice (Table I). The class given is in vivo, murine (CFD1+ mice). Conditions: for Effect MST % T/C: >125 considered significant.
The mark [1] stands for this setting: 32 mg/kg/inj IP, schedule qd 1 5.
The mark [2] stands for this setting: 64 mg/kg/inj IP, schedule qd 1 5.

Consider `Cc1cn([C@H]2C[C@H](O)[C@@H](CO)O2)c(=O)n(C=CC=O)c1=O` [XX-336, 3-(thymidin-3-yl)-prop-2-enal], for which the “Survivors d.5” value (2 mg/kg/inj IP, schedule qd 1 5) is given as 4/4 and the “Survivors d.5” value (4 mg/kg/inj IP, schedule qd 1 5) is on record as 4/4. For the same molecule, the “AWC d.5” value (2 mg/kg/inj IP, schedule qd 1 5, control +2.7) is reported as -0.3 gm; the “AWC d.5” value (4 mg/kg/inj IP, schedule qd 1 5, control +2.7) was “+0.6 gm”; the “AWC d.5” value (8 mg/kg/inj IP, schedule d.1, control +2.7) is on record as “+2.1 gm”; the “AWC d.5” value (8 mg/kg/inj IP, schedule qd 1 5, control +2.7) is “+0.4 gm”; the “AWC d.5” value (16 mg/kg/inj IP, schedule d.1, control +2.7) is recorded as “+0.5 gm”; the “AWC d.5” value (16 mg/kg/inj IP, schedule qd 1 5, control +2.7) is on record as “+0.8 gm”. For the same molecule, the “AWC d.5” value by setting is: (32 mg/kg/inj IP, schedule d.1, control +2.7) “+0.5 gm”; under setting [1], “TOX”; (64 mg/kg/inj IP, schedule d.1) “TOX”; under setting [2], “TOX”; (128 mg/kg/inj IP, schedule d.1) “TOX”; (256 mg/kg/inj IP, schedule d.1) “TOX”. Besides, the “MST (median survival time)” value under setting [1] is on record as “TOX”; the “MST (median survival time)” value (64 mg/kg/inj IP, schedule d.1) was “TOX”; the “MST (median survival time)” value under setting [2] is listed as “TOX”; the “MST (median survival time)” value (128 mg/kg/inj IP, schedule d.1) is on record as “TOX”; the “MST (median survival time)” value (256 mg/kg/inj IP, schedule d.1) is reported as “TOX”. The “Effect MST % T/C” value under setting [1] is given as “TOX”; the “Effect MST % T/C” value (64 mg/kg/inj IP, schedule d.1) is recorded as “TOX”; the “Effect MST % T/C” value under setting [2] was “TOX”; the “Effect MST % T/C” value (128 mg/kg/inj IP, schedule d.1) was “TOX”; the “Effect MST % T/C” value (256 mg/kg/inj IP, schedule d.1) is on record as “TOX”.
